In US12311136B2, “Using alternating electric fields to increase permeability of the blood brain barrier” (Novocure GmbH, priority 2020, dated 2025):

System: artificial BBB (murine brain capillary endothelial cells, cerebEND)
Conditions: 100 kHz alternating electric fields for 72 hours; 4 kDa FITC-dextrans

Substance: fluoresceine isothiocyanate coupled to dextran [FITC-dextrans]
- permeability of the artificial BBB to FITC-dextrans: 110 % of the control
